Measured values reported in PubChem BioAssay (NCI).
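Five concentrations, 48 hours, 96-well plates. The concentration for full growth arrest is given as TGI.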

Legend:
Assay in all cases: growth of human tumour cells (NCI), 48 h
SNB-75 CNS = system: SNB-75 CNS
U251 CNS = system: U251 CNS
PC-3 prostate = system: PC-3 prostate
MCF7 breast = system: MCF7 breast
HCT-116 colon = system: HCT-116 colon
HS 578T breast = system: HS 578T breast
UO-31 renal = system: UO-31 renal
OVCAR-4 ovarian = system: OVCAR-4 ovarian
K-562 leukemia = system: K-562 leukemia
NCI/ADR-RES ovarian = system: NCI/ADR-RES ovarian
LOX IMVI melanoma = system: LOX IMVI melanoma
HOP-62 NSCLC = system: HOP-62 NSCLC
M14 melanoma = system: M14 melanoma
MALME-3M melanoma = system: MALME-3M melanoma
SF-295 CNS = system: SF-295 CNS
HL-60(TB) leukemia = system: HL-60(TB) leukemia
HT29 colon = system: HT29 colon
SW-620 colon = system: SW-620 colon
NCI-H322M lung = system: NCI-H322M lung
MDA-MB-231 breast = system: MDA-MB-231 breast
SK-MEL-28 melanoma = system: SK-MEL-28 melanoma
IGROV1 ovarian = system: IGROV1 ovarian
A498 renal = system: A498 renal
HCT-15 colon = system: HCT-15 colon
OVCAR-5 ovarian = system: OVCAR-5 ovarian
TK-10 renal = system: TK-10 renal
SF-268 CNS = system: SF-268 CNS
DU-145 prostate = system: DU-145 prostate
RXF 393 renal = system: RXF 393 renal
SNB-19 CNS = system: SNB-19 CNS
T-47D breast = system: T-47D breast
BT-549 breast = system: BT-549 breast
NCI-H522 lung = system: NCI-H522 lung
HOP-92 NSCLC = system: HOP-92 NSCLC
786-0 renal = system: 786-0 renal
HCC-2998 colon = system: HCC-2998 colon
COLO 205 colon = system: COLO 205 colon
RPMI-8226 leukemia = system: RPMI-8226 leukemia
NCI-H226 lung = system: NCI-H226 lung
KM12 colon = system: KM12 colon
OVCAR-3 ovarian = system: OVCAR-3 ovarian
CCRF-CEM leukemia = system: CCRF-CEM leukemia
MDA-MB-435 = system: MDA-MB-435
OVCAR-8 ovarian = system: OVCAR-8 ovarian
SN12C renal = system: SN12C renal
SR leukemia = system: SR leukemia
SK-OV-3 ovarian = system: SK-OV-3 ovarian
ACHN renal = system: ACHN renal
NCI-H23 lung = system: NCI-H23 lung
MOLT-4 leukemia = system: MOLT-4 leukemia
UACC-62 melanoma = system: UACC-62 melanoma
NCI-H460 lung = system: NCI-H460 lung

Measured: TGI

CCOP1(=O)N=C(/N=C(\N)N(CC)CC)N(C)C1(C)C (configuration not stated)
> 100 µM: SNB-75 CNS | U251 CNS | PC-3 prostate | MCF7 breast | HCT-116 colon | HS 578T breast | UO-31 renal | OVCAR-4 ovarian | K-562 leukemia | NCI/ADR-RES ovarian | LOX IMVI melanoma | HOP-62 NSCLC | M14 melanoma | MALME-3M melanoma | SF-295 CNS | HL-60(TB) leukemia | HT29 colon | SW-620 colon | NCI-H322M lung | MDA-MB-231 breast | SK-MEL-28 melanoma | IGROV1 ovarian | A498 renal | HCT-15 colon | OVCAR-5 ovarian | TK-10 renal | SF-268 CNS | DU-145 prostate | RXF 393 renal | SNB-19 CNS | T-47D breast | BT-549 breast | NCI-H522 lung | HOP-92 NSCLC | 786-0 renal | HCC-2998 colon | COLO 205 colon | RPMI-8226 leukemia | NCI-H226 lung | KM12 colon | OVCAR-3 ovarian | CCRF-CEM leukemia | MDA-MB-435 | OVCAR-8 ovarian | SN12C renal | SR leukemia | SK-OV-3 ovarian | ACHN renal | NCI-H23 lung | MOLT-4 leukemia | UACC-62 melanoma | NCI-H460 lung
